Experimental findings from publication PMC6961116, “Scaffold-hopping identifies furano[2,3-d]pyrimidine amides as potent Notum inhibitors” (Bioorganic & Medicinal Chemistry Letters, 2020) are described below.

Chains of the proteins cited; added tags and fusions are not shown. Residues count along the entry.
UniProt Q6P988, 81-451 C330S limits assumed: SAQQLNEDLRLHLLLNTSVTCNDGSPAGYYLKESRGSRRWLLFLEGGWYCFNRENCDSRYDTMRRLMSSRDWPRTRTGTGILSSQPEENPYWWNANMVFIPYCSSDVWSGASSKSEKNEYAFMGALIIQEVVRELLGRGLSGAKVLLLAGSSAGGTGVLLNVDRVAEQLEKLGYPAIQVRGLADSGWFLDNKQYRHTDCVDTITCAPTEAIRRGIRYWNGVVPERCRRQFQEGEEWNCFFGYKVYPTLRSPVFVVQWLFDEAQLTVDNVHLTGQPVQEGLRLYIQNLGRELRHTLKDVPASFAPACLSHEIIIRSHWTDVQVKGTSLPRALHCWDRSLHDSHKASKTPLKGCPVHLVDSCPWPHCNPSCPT

One data set has as its target Notum(81–451 Cys330Ser) (Homo sapiens, UniProt Q6P988, C330S). Briefly: Notum biochemical OPTS assay (carboxylesterase activity). The settings on record: read-out: Notum IC50; OPTS substrate, 1 h incubation; geometric mean ± s.d.
As a reminder, the IC50 is the concentration that inhibits the measured activity by half. As for `Cc1sc2ncnc(SCC(=O)N3CCNC(=O)CC3)c2c1Cl`, the IC50 stood at 33 nM. On to `Cc1sc2ncnc(SCC(=O)N3CCc4[nH]cnc4C3)c2c1Cl`, for which the half-inhibitory concentration (IC50) is 7.8 nM. `Cc1sc2ncnc(SCC(=O)N3CC4(CC(=O)N(C)C4)C3)c2c1Cl`: the IC50 was found to be 62 nM. Same read-out and setting: then `Cc1sc2ncnc(SCC(=O)N3CC4(COC4)C3)c2c1Cl`, with 20 nM; and `Cc1sc2ncnc(SCC(=O)N3CCc4ncccc4C3)c2c1Cl`, with 20 nM; and `Cc1sc2ncnc(SCC(=O)N3CCN(C)CC3)c2c1Cl`, with 106 nM. The same measure, in the same setting: then `Cc1sc2ncnc(SCC(=O)N3CCOC[C@@H]3C)c2c1Cl`, with 25 nM. `Cc1sc2ncnc(SCC(=O)N3CN(C)C(=O)C3C)c2c1Cl` (stereo not drawn): the IC50 is 61 nM. Still for that read-out and setting: then `Cc1sc2ncnc(SCC(=O)N3CCCNC(=O)C3)c2c1Cl`, with 26 nM; and `CC(=O)N1CCN(C(=O)CSc2ncnc3sc(C)c(Cl)c23)CC1`, with 33 nM; and `Cc1sc2ncnc(SCC(=O)N3CC4(CCOCC4)C3)c2c1Cl`, with 88 nM.

For the compound `Cc1sc2ncnc(SCC(=O)N3CC4CC(C3)O4)c2c1Cl`, the half-inhibitory concentration (IC50) came out at 24 nM. Still for that read-out and setting: under `Cc1sc2ncnc(SCC(=O)N3Cc4cn[nH]c4C3)c2c1Cl` stands 3.2 nM; under `Cc1sc2ncnc(SCC(=O)N3CCc4nocc4C3)c2c1Cl`, 21 nM. Turning to `Cc1sc2ncnc(SCC(=O)N3CC(C#N)C3)c2c1Cl`, the half-maximal inhibitory concentration (IC50) is 2.7 nM.

In the case of `Cc1sc2ncnc(SCC(=O)N3CC4COCC4C3)c2c1Cl` (stereo not drawn), the IC50 was 18 nM. As for `Cc1sc2ncnc(SCC(=O)N3CCN(C(C)C)C(=O)C3)c2c1Cl`, the IC50 was 44 nM. Take `Cc1sc2ncnc(SCC(=O)N3CC4(CNC(=O)C4)C3)c2c1Cl`: the 50% inhibitory concentration (IC50) worked out at 17 nM. Still for that read-out and setting: under `Cc1sc2ncnc(SCC(=O)N3CCN4C(=O)CCC4C3)c2c1Cl` (stereo not drawn) stands 290 nM; under `Cc1sc2ncnc(SCC(=O)N3CCn4nc(C(F)F)nc4C3)c2c1Cl`, 24 nM; under `Cc1sc2ncnc(SCC(=O)N3CCN(CC(F)(F)F)C(=O)C3)c2c1Cl`, 15 nM.

For the compound `Cc1sc2ncnc(SCC(=O)N3CC(F)(F)C3)c2c1Cl`, the IC50 was 1.7 nM. With `Cc1sc2ncnc(SCC(=O)N3CCOCC3(C)C)c2c1Cl`, the concentration for half-maximal inhibition (IC50) was determined as 1900 nM. On the same count and under the same terms, under `Cc1sc2ncnc(SCC(=O)N3CCOC[C@H]3C)c2c1Cl` stands 22 nM; under `Cc1sc2ncnc(SCC(=O)N3CCn4c(nnc4C(C)C)C3)c2c1Cl`, 35 nM.

The test system of a further data set is MDCK-MDR1 monolayer.
Assay: not given
Details: not given
For orientation: efflux ratio means the permeability from basolateral to apical divided by that in the opposite direction, in the common usage. As for `Cc1sc2ncnc(SCC(=O)N3CC4(CC(=O)N(C)C4)C3)c2c1Cl`, the efflux ratio turned out to be 24.

With `Cc1sc2ncnc(SCC(=O)N3CC4(CNC(=O)C4)C3)c2c1Cl`, the efflux ratio was 65.

With `Cc1sc2ncnc(SCC(=O)N3CCn4nc(C(F)F)nc4C3)c2c1Cl`, the efflux ratio was 13. Regarding `Cc1sc2ncnc(SCC(=O)N3CCN(CC(F)(F)F)C(=O)C3)c2c1Cl`, the efflux ratio is 2.6. Turning to `Cc1sc2ncnc(SCC(=O)N3CCn4c(nnc4C(C)C)C3)c2c1Cl`, the efflux ratio turned out to be 88.
